In experiment [1] the target is T1, Histone deacetylase 1 (Mus musculus, UniProt O09106). The experiment in a line: In vitro for anti-HDAC1 (Histone deacetylase 1) activity in mouse A20 cells. Type of experiment: cell-based.
The target in experiment [2] is T2, Histone deacetylase HD2 (Zea mays, UniProt Q94F81).
T2 sequence (Q94F81 whole entry): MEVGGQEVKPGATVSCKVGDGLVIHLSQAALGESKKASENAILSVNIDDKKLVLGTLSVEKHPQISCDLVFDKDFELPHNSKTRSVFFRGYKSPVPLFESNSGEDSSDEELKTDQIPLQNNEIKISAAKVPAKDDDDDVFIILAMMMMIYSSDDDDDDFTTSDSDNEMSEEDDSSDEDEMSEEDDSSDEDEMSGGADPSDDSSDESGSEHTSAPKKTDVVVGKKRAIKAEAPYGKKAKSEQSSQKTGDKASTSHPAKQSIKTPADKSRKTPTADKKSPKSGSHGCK
The experiment can be described thus: In vitro for anti-HD2 (Histone deacetylase 2) activity in maize.

Sequences of proteins named here, by UniProt entry; tags and fusion partners are left off.
UniProt O09106, whole entry: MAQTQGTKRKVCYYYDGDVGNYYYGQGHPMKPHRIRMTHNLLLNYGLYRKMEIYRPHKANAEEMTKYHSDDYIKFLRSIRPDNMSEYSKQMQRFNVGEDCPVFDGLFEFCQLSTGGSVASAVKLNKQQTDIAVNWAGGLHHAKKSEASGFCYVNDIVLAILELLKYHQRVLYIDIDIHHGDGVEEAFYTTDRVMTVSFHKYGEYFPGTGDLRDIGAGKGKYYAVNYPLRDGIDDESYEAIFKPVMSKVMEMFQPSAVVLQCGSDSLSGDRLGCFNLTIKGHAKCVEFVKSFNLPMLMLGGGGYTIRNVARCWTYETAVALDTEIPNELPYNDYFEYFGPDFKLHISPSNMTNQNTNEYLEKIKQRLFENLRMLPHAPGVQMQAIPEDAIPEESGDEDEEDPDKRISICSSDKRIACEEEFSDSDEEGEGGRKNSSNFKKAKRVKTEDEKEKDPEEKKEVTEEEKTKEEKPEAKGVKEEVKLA

Experiment [3] addresses T1, Histone deacetylase 1. The experiment in a line: Binding affinity towards HDAC1 (Histone deacetylase 1) in mouse A20 cells, expressed as binding constant (pKi). Type of experiment: cell-based.

For `CC(/C=C/C(=O)NO)=C\[C@@H](C)C(=O)c1ccc(N(C)C)cc1` [TRICHOSTATIN], the results for the IC50 in experiment [1] and in experiment [2] were 2 nM and 7 nM, respectively.
In turn, `O=C(CCCCCCC(=O)Nc1ccccc1)NO` [VORINOSTAT] gave a Ki in experiment [3] of 67.6 nM.

The record behind these values is ChEMBL document CHEMBL1135928, “Binding mode analysis of 3-(4-benzoyl-1-methyl-1H-2-pyrrolyl)-N-hydroxy-2-propenamide: a new synthetic histone deacetylase inhibitor inducing histone hyperacetylation, growth inhibition, and terminal cell differentiation” (J Med Chem, 2002).
